Reference: ChEMBL document CHEMBL1122516, “Structure-activity relationships for reactivators of organophosphorus-inhibited acetylcholinesterase: quaternary salts of 2-[(hydroxyimino)methyl]imidazole” (1984)

Columns and labels:
[1] = species on record: Homo sapiens; experiment: Concentration of the HOX that inhibits 50% of AChE (Acetylcholinesterase) activity
[2] = Partition coefficient (logP); settings: octanol/water
[3] = Reactivation rate constant with respect to oxmiate concentration (1/OX (1/uM) =0.382)
[4] = Effective biomolecular rate constant at the concentration 10 uM [HOX] in the conditions of 25degreeC,pH 7.6; settings: pH 7.6, 10 µM
[5] = Biomolecular rate constant for reactivation and measure of the inherent reactivity of the oximate form of the reactivator at the concentration 10 uM [HOX] in the conditions of 25degreeC,pH 7.6; settings: pH 7.6, 10 µM
[6] = pKa value of the compound
[7] = Reactivation rate constant with respect to enzyme(AChE) inhibition
[8] = Reactivation rate constant with respect to oxmiate concentration (1/OX (1/uM) =0.313)
[9] = Reactivation rate constant with respect to oxmiate concentration (1/OX (1/uM) =0.115)
[10] = Biomolecular rate constant for reactivation and measure of the inherent reactivity of the oximate form of the reactivator at the concentration 30 uM [HOX] in the conditions of 25degreeC,pH 7.6; settings: pH 7.6, 30 µM
[11] = Effective biomolecular rate constant at the concentration 30 uM [HOX] in the conditions of 25degreeC,pH 7.6; settings: pH 7.6, 30 µM
[12] = Reactivation rate constant with respect to oxmiate concentration (1/OX (1/uM) =0.345)
[13] = test system: Anguilliformes; experiment: The compound was tested for % of maximum reactivation for GD-inhibited Eel AChE (Acetylcholinesterase) by oximes
[14] = Reactivation rate constant with respect to oxmiate concentration (1/OX (1/uM) =0.049)
[15] = Reactivation rate constant with respect to oxmiate concentration (1/OX (1/uM) =0.318)
[16] = Reactivation rate constant with respect to oxmiate concentration (1/OX (1/uM) =0.141)
[17] = Reactivation rate constant with respect to oxmiate concentration (1/OX (1/uM) =0.119)
[18] = Reactivation rate constant with respect to oxmiate concentration (1/OX (1/uM) =0.125)
[19] = Reactivation rate constant with respect to oxmiate concentration (1/OX (1/uM) =0.357)

| Compound | IC50 [1] [µM] | logP [2] | Kr [7] [M] | kOX [10] [M⁻¹ s⁻¹] | kHOX [11] [M⁻¹ s⁻¹] | also measured |
| --- | --- | --- | --- | --- | --- | --- |
| Cn1cc[n+](COCc2cccc3ccccc23)c1/C=N/O | 7 | – | – | – | – | – |
| Cn1cc[n+](COCCCc2ccccc2)c1/C=N/O.[Cl-] | – | -0.45 | 391000 | – | – | kr [3]: 3290 min⁻¹; kHOX [4]: 3.67e-05 M⁻¹ s⁻¹; kOX [5]: 0.00014 M⁻¹ s⁻¹; pKa [6]: 8.05 |
| Cn1cc[n+](COCC(C)(C)C)c1/C=N/O | 12 | – | – | – | – | – |
| CC(C)OC[n+]1ccn(C)c1/C=N/O.[Cl-] | – | -3 | 7.46e+06 | – | – | kHOX [4]: 8.67e-06 M⁻¹ s⁻¹; kOX [5]: 2.67e-05 M⁻¹ s⁻¹; kr [8]: 12100 min⁻¹ |
| Cn1cc[n+](COCCCc2ccccc2)c1/C=N/O | 15 | – | – | – | – | – |
| CCCCOC[n+]1ccn(C)c1/C=N/O | 20 | – | – | – | – | – |
| CCCCCCCCOC[n+]1ccn(C)c1/C=N/O | 7 | – | – | – | – | – |
| CC(OC[n+]1ccn(C)c1/C=N/O)C(C)(C)C (stereo not given) | 16 | – | – | – | – | – |
| COC[n+]1ccn(C)c1/C=N/O.[Cl-] | – | -3 | 7.86e+06 | 0.000127 | 3.67e-05 | kr [9]: 59400 min⁻¹; pKa [6]: 7.96 |
| C[n+]1ccccc1/C=N/O.[Cl-] | – | – | 3.74e+06 | – | – | kr [12]: 36000 min⁻¹; kHOX [4]: 4.5e-05 M⁻¹ s⁻¹; Rmax [13]: 23.3%; kOX [5]: 0.00016 M⁻¹ s⁻¹ |
| Cl.NC(=O)c1cc[n+](COCN2C=CC=CC2=CN=O)cc1.[Cl-] | – | – | 3.38e+07 | 1.02e-05 | 6.83e-06 | kr [14]: 20600 min⁻¹ |
| NC(=O)c1cc[n+](COC[n+]2ccccc2/C=N/O)cc1.[Cl-].[Cl-] | – | – | – | – | – | Rmax [13]: 48.7% |
| Cn1cc[n+](COCc2ccccc2)c1/C=N/O.[Cl-] | – | -1.3 | 3.51e+06 | – | – | kr [15]: 29000 min⁻¹; kHOX [4]: 4.33e-05 M⁻¹ s⁻¹; kOX [5]: 0.000137 M⁻¹ s⁻¹ |
| Cn1cc[n+](COCc2cccc3ccccc23)c1/C=N/O.[Cl-] | – | -0.36 | 835000 | 0.000122 | 2.83e-05 | kr [16]: 6100 min⁻¹ |
| CC(OC[n+]1ccn(C)c1/C=N/O)C(C)(C)C.[Cl-] (stereo not given) | – | -0.68 | 5.66e+06 | 1.38e-05 | 3.83e-06 | kr [17]: 4720 min⁻¹ |
| CC(C)OC[n+]1ccn(C)c1/C=N/O | 80 | – | – | – | – | – |
| CCCCOC[n+]1ccn(C)c1/C=N/O.[Cl-] | – | -1.39 | 1.99e+06 | 6.33e-05 | 1.67e-05 | kr [18]: 7580 min⁻¹ |
| Cn1cc[n+](COCC(C)(C)C)c1/C=N/O.[Cl-] | – | -0.91 | 8.32e+06 | 3.33e-05 | 9e-06 | kr [18]: 16800 min⁻¹ |
| CCCCCCCCOC[n+]1ccn(C)c1/C=N/O.[Cl-] | – | 0.88 | 336000 | – | – | kHOX [4]: 4.67e-05 M⁻¹ s⁻¹; kOX [5]: 0.000163 M⁻¹ s⁻¹; kr [19]: 3290 min⁻¹ |
| Cn1cc[n+](COCc2ccccc2)c1/C=N/O | 50 | – | – | – | – | – |
